System: MDA-MB-436 BRCA1m TNBC xenograft
Test: MDA-MB-436 BRCA1m TNBC xenograft efficacy
Conditions: 100 mg/kg daily; MDA-MB-436 and HBCx-17 models

Structure (SMILES): O=C(c1cc(Cc2n[nH]c(=O)c3ccccc23)ccc1F)N1CCN(C(=O)C2CC2)CC1 [olaparib]
- Time to some tumor regrowth after treatment withdrawal: about 8 weeks
